Patent US8119588B2, “Hard surface cleaner compositions of sulfonated estolides and other derivatives of fatty acids and uses thereof” (Stepan Company, priority 2009, dated 2012)

Test: Coupling ability (hydrotrope requirement) with nonionic surfactants of different HLB
Format: physicochemical
Experimental: Sodium xylene sulfonate (SXS) is often used as a hydrotrope to clarify cloudy formulations. […] In Table 2, the measurement of the amount of hydrotrope or surfactant needed to clear the solution was determined.
The compositions described in Table 2 are made in accordance with the following steps: • Add the water and trisodium citrate and mix until the solution is clear. Add BIO-SOFT® N25-9 slowly until the solution is homogeneous. Add BIO-SOFT® N25-3 and mix until the solution is homogeneous. If the final solution is cloudy, then continue adding the hydrotrope or surfactant and agitate until solution is clear.

Substance: Sodium linear alkyl benzene sulfonate [LAS]
- Final appearance (after adding hydrotrope or surfactant to cloudy nonionic blend): did not clear,
- hydrotrope requirement (actives) (amount needed to clear blend of 5% Bio-soft N25-9, 5% Bio-Soft N25-3, 1% trisodium citrate): 8.3 % actives
